{"source": "patent US12485299B2", "about": "“Antibody-immune agonist conjugate and applications thereof” (GENEQUANTUM HEALTHCARE (SUZHOU) CO., LTD., priority 2021, dated 2025)", "key": {"[1]": {"test_system": "JIMT1 human breast cancer cells", "assay": "In vivo anti-tumor efficacy, JIMT1 CDX model", "details": "5 mg/kg intravenously, JIMT1 in SCID Beige mice", "excerpt": "5×10^6 JIMT1 human breast cancer cells were inoculated subcutaneously in the right flank in SCID Beige mice to generate xenograft model."}, "[2]": {"test_system": "NCI-N87 human gastric cancer cells", "assay": "In vivo anti-tumor efficacy, NCI N87 CDX model (HER2 AIAC)", "parameters": "species or system SCID Beige mice", "details": "for anti-tumor activity (tumor volume): 5 mg/kg intravenously, NCI-N87 in SCID Beige mice", "procedure": "For in vivo anti-tumor efficacy study, 1×10^7 NCI-N87 human gastric cancer cells were inoculated subcutaneously in the right flank in SCID Beige mice. […] The tumor volume was measured twice weekly with calipers."}, "[3]": {"test_system": "MC38hHER2 murine colorectal cancer cells overexpressing human HER2", "assay": "In vivo anti-tumor efficacy, MC38 model overexpressing hHER2", "details": "10 mg/kg intravenously, MC38hHER2 in C57BL/6 mice"}}, "data": [{"substance": "AC102-8-1-1", "values": [{"measurement": "tumor growth", "setting": "[1]", "result": "significantly inhibited"}, {"measurement": "anti-tumor activity (tumor volume)", "setting": "[2]", "result": "almost cured the tumors at the end"}, {"measurement": "anti-tumor activity (tumor volume), dose dependence", "setting": "[2]; 0.5, 1, and 3 mg/kg, separate study", "result": "dose-dependent activity"}]}, {"substance": "Trastuzumab [Ab0001, reference compound]", "values": [{"measurement": "anti-tumor activity (tumor volume)", "setting": "[3]", "result": "no obvious anti-tumor activity"}, {"measurement": "anti-tumor activity (tumor volume)", "setting": "[2]", "result": "very limited anti-tumor activity"}]}]}
